The assay addresses T1, human GLP1R (Homo sapiens, UniProt P43220).
T1 construct: expressed in transfected cells; host or cells: CHO
Briefly: GLP1R agonist cAMP assay in CHO cells stably expressing human GLP1R. Conditions: relative to maximal effect of human GLP-1, read-out: GLP1R agonist mode Emax (%). Format: cell-based. The protocol:
cAMP assay: The in vitro agonist potency of the peptides disclosed herein was evaluated using a cell-based assay measuring cAMP production. CHO cells stably expressing human GLP1R, or both human GIPR and GLP1R, were incubated with increasing concentrations of agonists for 30 minutes at 37° C. Cells were lysed and cAMP was detected using a homogenous time resolved fluorescence detection kit, as described by the manufacturer (Revvity). […] The EC50 and maximum effect (Emax) values were then determined from the normalized effects and agonist concentrations using a four-parameter logistic equation (GraphPad Prism).
On the technique in general: Changes in cAMP serve as a functional read-out for many G protein-coupled receptors.

The chains behind the UniProt entries cited, without tags or fusion partners. Residues count along the entry.
UniProt P43220, 24-463: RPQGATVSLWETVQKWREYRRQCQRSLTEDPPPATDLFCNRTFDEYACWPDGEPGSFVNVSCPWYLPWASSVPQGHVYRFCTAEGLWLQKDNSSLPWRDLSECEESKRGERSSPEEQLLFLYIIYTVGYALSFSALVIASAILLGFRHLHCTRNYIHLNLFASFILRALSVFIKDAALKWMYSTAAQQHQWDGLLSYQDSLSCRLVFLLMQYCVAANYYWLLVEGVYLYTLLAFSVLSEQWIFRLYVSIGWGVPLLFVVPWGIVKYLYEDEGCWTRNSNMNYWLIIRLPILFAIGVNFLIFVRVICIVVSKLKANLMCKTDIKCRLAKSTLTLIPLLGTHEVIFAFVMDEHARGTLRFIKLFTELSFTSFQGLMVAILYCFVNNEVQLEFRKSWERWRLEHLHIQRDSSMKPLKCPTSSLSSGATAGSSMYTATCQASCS

As a reminder, the Emax is the size of the effect at its maximum, as opposed to the concentration needed.

As for `CC[C@H](C)[C@H](NC(=O)[C@H](Cc1ccccc1)NC(=O)[C@H](CCC(=O)O)NC(=O)[C@H](CCCCN)NC(=O)[C@H](C)NC(=O)[C@H](C)NC(=O)[C@H](CCC(N)=O)NC(=O)[C@H](CCC(=O)O)NC(=O)[C@H](CCC(=O)O)NC(=O)[C@H](CC(C)C)NC(=O)[C@H](Cc1ccc(O)cc1)NC(=O)[C@H](CO)NC(=O)[C@H](CO)NC(=O)[C@@H](NC(=O)[C@H](CC(=O)O)NC(=O)[C@H](CO)NC(=O)[C@@H](NC(=O)[C@H](Cc1ccccc1)NC(=O)[C@@H](NC(=O)CNC(=O)[C@H](CCC(=O)O)NC(=O)C(C)(C)NC(=O)[C@@H](N)Cc1c[nH]cn1)[C@@H](C)O)[C@@H](C)O)C(C)C)C(=O)N[C@@H](C)C(=O)N[C@@H](Cc1c[nH]c2ccccc12)C(=O)N[C@@H](CC(C)C)C(=O)N[C@H](C(=O)N[C@@H](CCCCN)C(=O)NCC(=O)N[C@@H](CCCNC(=N)N)C(=O)NCC(=O)NCC(=O)NCC(=O)NCC(=O)NCC(=O)N[C@@H](CO)C(=O)NCC(=O)NCC(=O)NCC(=O)NCC(=O)N[C@@H](CO)C(=O)NCC(=O)NCC(=O)NCC(=O)NCC(=O)N[C@@H](CO)C(=O)N[C@@H](CCCCNC(=O)CBr)C(N)=O)C(C)C` [compound 149], the maximal effect (Emax) was 106%. As for `CC[C@H](C)[C@H](NC(=O)[C@H](Cc1ccccc1)NC(=O)[C@H](CCC(=O)O)NC(=O)[C@H](CCCCN)NC(=O)[C@H](C)NC(=O)[C@H](C)NC(=O)[C@H](CCC(N)=O)NC(=O)C(C)(C)NC(=O)[C@H](CCC(=O)O)NC(=O)[C@H](CC(C)C)NC(=O)[C@H](Cc1ccc(O)cc1)NC(=O)[C@H](CO)NC(=O)[C@H](CO)NC(=O)[C@@H](NC(=O)[C@H](CC(=O)O)NC(=O)[C@H](CO)NC(=O)[C@@H](NC(=O)[C@H](Cc1ccccc1)NC(=O)[C@@H](NC(=O)CNC(=O)[C@H](CCC(=O)O)NC(=O)C(C)(C)NC(=O)[C@@H](N)Cc1c[nH]cn1)[C@@H](C)O)[C@@H](C)O)C(C)C)C(=O)N[C@@H](C)C(=O)N[C@@H](Cc1c[nH]c2ccccc12)C(=O)N[C@@H](CC(C)C)C(=O)N[C@H](C(=O)N[C@@H](CCCCN)C(=O)NCC(=O)N[C@@H](CCCNC(=N)N)C(=O)NCC(=O)NCC(=O)NCC(=O)NCC(=O)NCC(=O)N[C@@H](CO)C(=O)NCC(=O)NCC(=O)NCC(=O)NCC(=O)N[C@@H](CO)C(=O)NCC(=O)NCC(=O)NCC(=O)NCC(=O)N[C@@H](CO)C(=O)N[C@@H](CCCCNC(=O)CBr)C(N)=O)C(C)C` [compound 150], the maximal response (Emax) was determined as 104%.

(Values after patent US20250163168A1, “NOVEL ANTIBODIES AND ANTIBODY CONJUGATES FOR THE TREATMENT OF METABOLIC DISORDERS” (PFIZER INC., priority 2023, published 2025).)
